This is an account of results in PMC4798913 (ACS chemical biology, 2015).

By UniProt entry, the sequences of proteins in these tests, tags left out. Where a name states a change or a piece, a line headed by the entry shows the natural chain unless it says otherwise.
UniProt O60678: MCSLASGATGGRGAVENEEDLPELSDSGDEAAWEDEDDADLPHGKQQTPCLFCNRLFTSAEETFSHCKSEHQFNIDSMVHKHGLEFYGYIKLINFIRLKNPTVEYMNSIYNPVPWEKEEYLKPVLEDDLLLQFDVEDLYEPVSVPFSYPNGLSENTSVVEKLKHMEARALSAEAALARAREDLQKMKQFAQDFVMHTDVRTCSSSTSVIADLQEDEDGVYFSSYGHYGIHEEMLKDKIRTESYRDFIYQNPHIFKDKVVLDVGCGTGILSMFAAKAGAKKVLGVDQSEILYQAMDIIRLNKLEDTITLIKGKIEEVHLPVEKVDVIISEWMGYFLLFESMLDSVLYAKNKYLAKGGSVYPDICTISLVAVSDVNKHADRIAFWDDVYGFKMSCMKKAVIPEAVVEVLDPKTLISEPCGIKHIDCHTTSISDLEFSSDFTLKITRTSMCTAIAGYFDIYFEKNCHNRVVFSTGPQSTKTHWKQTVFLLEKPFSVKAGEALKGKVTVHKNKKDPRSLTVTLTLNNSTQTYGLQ

By Ki is commonly meant a measure of affinity in units of concentration, obtained from inhibition or displacement.

One assay deals with MCF7 cells. The assay can be described thus: Cell growth assay. As to conditions: 10 μM, 10 days. The assay is classed as cell-based.
A further assay concerns the target PRMT3 (Homo sapiens, UniProt O60678). Kind of assay: PRMT biochemical scintillation proximity assay. As to conditions: read-out: Ki PRMT3; calculated from IC50.

Regarding `CC(C)Oc1ccc(-c2c[nH]cc2CN(C)CCN)cc1` [MS023], the “effect on cell growth (confluency)” value in the assay with MCF7 cells is recorded as “significant decrease of cell growth”. The Ki at PRMT3 is 55 nM.
